Here are results for two molecules from US11814388B1, “Substituted pyrrolo[2,3-d]pyrimidines and pyrazolo[3,4-d]pyrimidines as inhibitors for multi-resistant cancers” (priority 2020, dated 2023).

Chains of the proteins cited; added tags and fusions are not shown.
UniProt Q96GD4, whole entry: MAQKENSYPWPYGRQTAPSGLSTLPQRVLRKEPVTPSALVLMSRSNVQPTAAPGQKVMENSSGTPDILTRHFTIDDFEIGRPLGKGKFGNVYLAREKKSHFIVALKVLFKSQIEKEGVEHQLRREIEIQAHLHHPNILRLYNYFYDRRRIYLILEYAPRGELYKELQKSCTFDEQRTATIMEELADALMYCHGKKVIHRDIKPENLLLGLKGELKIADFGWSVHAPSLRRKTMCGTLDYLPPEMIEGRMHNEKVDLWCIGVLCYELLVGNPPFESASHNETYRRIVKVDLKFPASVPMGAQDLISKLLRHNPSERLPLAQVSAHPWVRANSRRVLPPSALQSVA

The assay has as its target AURKB (Homo sapiens (Human), UniProt Q96GD4). Description: Kinomescan KdELECT platform (DiscoverX), AURKB. The class given is binding.

`O=C(Nc1ccc(Nc2ncnc3[nH]ccc23)cc1)c1ccccc1` [Compound 5]: binding was put at a Kd of 0.47 µM.
The result for `c1ccc(COc2ccc(Nc3ncnc4[nH]ccc34)cc2)cc1` [Compound 9] reads 9.8 µM.
